# From PubChem BioAssay AID1346428 (National Center for Advancing Translational Sciences (NCATS), 2018)
# Amino acid sequences for entries named in this document (tags omitted).
# UniProt O75388, whole entry: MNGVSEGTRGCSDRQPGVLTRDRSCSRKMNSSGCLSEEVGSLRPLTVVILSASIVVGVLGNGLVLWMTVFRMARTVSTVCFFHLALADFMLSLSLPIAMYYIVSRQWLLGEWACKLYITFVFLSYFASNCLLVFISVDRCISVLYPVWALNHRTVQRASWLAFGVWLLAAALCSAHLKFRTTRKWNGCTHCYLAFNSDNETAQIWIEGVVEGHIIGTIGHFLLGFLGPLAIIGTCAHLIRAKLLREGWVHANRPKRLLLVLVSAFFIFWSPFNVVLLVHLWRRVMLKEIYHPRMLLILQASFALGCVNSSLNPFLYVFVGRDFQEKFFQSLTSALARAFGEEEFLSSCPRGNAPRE
# Only a part is listed here, and it is no random draw. The source made the active and inactive calls.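 How the source made its calls: active means activation of at least 60% and not above a set upper limit (about 1 call in 100 departs from these limits); inconclusive means activation of 40% to 60%, or above that upper limit; inactive means activation under 40%.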
# Biological target: Probable G-protein coupled receptor 32 (Homo sapiens) (UniProt O75388)
# Assay: qHTS for Agonists of Human Resolvin D1 Receptor DRV1; further: 0% is about no effect
# Conditions: CHO-K1 GPR32 beta-arrestin PathHunter luminescence, 90 min; at 76.9 µM; hits give high values; zero percent set by DMSO-only wells
row,Compound,activation
1,C/C1=C2N=C(/C=C3N=C(/C(C)=C4\[N-][C@@](C)([C@@H]5N=C1[C@](C)(CCC(=O)NC[C@@H](C)OP(=O)([O-])O[C@H]1[C@@H](O)[C@@H](n6cnc7cc(C)c(C)cc76)O[C@@H]1CO)[C@H]5CC(N)=O)[C@@](C)(CC(N)=O)[C@@H]4CCC(N)=O)[C@@](C)(CC(N)=O)[C@@H]\3CCC(N)=O)C(C)(C)[C@@H]/2CCC(N)=O.[C-]#N.[Co+3],inactive: -20.9%
2,CCOP(=O)(CC)Oc1ccc([N+](=O)[O-])cc1 (centres undefined),inactive: -12.2%
3,OCCSCCO,inactive: -0.666%
4,O=[N+]([O-])c1cccc([N+](=O)[O-])c1,inactive: 13.8%
